Biological target: ERα/β (Homo sapiens, UniProt P03372)
Assay: ERE-GFP reporter activation/inhibition assay in MCF-7 cells
Settings: data not shown

The chains behind the UniProt entries cited, without tags or fusion partners.
UniProt P03372, whole entry: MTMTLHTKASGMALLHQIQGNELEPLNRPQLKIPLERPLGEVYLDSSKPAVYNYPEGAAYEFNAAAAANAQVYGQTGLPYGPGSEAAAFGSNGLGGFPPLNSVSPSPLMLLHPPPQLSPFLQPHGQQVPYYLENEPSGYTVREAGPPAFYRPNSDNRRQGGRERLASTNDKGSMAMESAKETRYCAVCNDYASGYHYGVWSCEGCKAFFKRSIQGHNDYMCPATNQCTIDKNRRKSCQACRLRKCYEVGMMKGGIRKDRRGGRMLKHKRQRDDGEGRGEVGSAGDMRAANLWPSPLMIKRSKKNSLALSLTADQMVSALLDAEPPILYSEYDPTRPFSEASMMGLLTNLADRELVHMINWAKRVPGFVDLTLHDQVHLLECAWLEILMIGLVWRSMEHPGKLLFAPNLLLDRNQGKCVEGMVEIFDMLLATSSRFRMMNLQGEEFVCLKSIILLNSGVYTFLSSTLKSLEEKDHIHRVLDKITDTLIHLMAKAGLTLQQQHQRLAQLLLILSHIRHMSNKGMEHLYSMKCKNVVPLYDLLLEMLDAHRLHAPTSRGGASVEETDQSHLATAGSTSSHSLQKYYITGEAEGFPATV

With C[C@]12CC[C@@H]3c4ccc(O)cc4C[C@@H](CCCCCCCCC[S+]([O-])CCCC(F)(F)C(F)(F)F)[C@H]3[C@@H]1CC[C@@H]2O (stereo partly shown) [ICI182,780] the “effect on GFP induction by E2 and G15 (coincubation)” value was “complete ablation”.
